According to PubChem BioAssay (NCATS):
This is a selection; strong and weak results do not stand in their true shares. Inconclusive results are not listed. Active and inactive are the calls of the source. Unless noted, the call rests on the fitted dose curve; in most records, active means well fitted curve in the direction sought with a large enough effect; inconclusive means small, poorly fitted or top-dose-only effect, or another doubt; inactive means no such curve, though single readings can be large; an effect the other way counts as inactive or inconclusive.

Tests used:
CRL-7250 = normal cell line; test: Cytotoxic Profiling of Annotated Libraries Using Quantitative High-Throughput Screening (AID 1296008); conditions: Five cell lines viability, CellTiter-Glo ATP luminescence, 48-72 h, hits give low values; further: nearly all actives have a fitted effect of over 60% in size; on max response: on the % scale 0 is the no-effect control and ±100 the full control effect
In short: (§1)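 Cytotoxicity was measured as CellTiter-Glo ATP luminescence, read after 10 min at room temperature. Compound treatment of the cells lasted 48 or 72 hr at 37 degrees Celsius in a qHTS format.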

HEK293 = test: as above; conditions: Five cell lines viability, CellTiter-Glo ATP luminescence, 48-72 h, hits give low values
In short: as §1

KB-3-1 = test: as above; conditions: Five cell lines viability, CellTiter-Glo ATP luminescence, 48-72 h, hits give low values
In short: as §1

NIH3T3 [1] = test: as above; conditions: Five cell lines viability, CellTiter-Glo ATP luminescence, 48-72 h; hits give low values
In short: as §1

HaCat [2] = test: as above; conditions: Five cell lines viability, CellTiter-Glo ATP luminescence, 48-72 h
In short: as §1

HACAT [3] = test: qHTS assay to identify novel small-molecules to repurpose for Merkel cell carcinoma treatment (AID 1296009); conditions: MCC and control cell lines, CellTiter-Glo viability, 72 h; at 44.8 µM (top of the series); further: nearly all actives have a fitted effect of over 60% in size; on activity change, negative = cytotoxicity: on the % scale 0 is the no-effect control and ±100 the full control effect
In short: (§2)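 Cell viability measured by CellTiter-Glo following 72 hr compound treatment at 37 degree celsius, with NPC and MIPE libraries tested in 8- and 11-point concentration series.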

MCC-13 = test: as above; conditions: MCC and control cell lines, CellTiter-Glo viability, 72 h; at 46 µM (top of the series)
In short: as §2

MCC-26 = test: as above; conditions: MCC and control cell lines, CellTiter-Glo viability, 72 h; at 46 µM (top of the series)
In short: as §2

MKL-1 = test: as above; conditions: MCC and control cell lines, CellTiter-Glo viability, 72 h; at 46 µM (top of the series)
In short: as §2

MKL-2 = test: as above; conditions: MCC and control cell lines, CellTiter-Glo viability, 72 h; at 46 µM (top of the series)
In short: as §2

NIH3T3 [4] = test: as above; conditions: MCC and control cell lines, CellTiter-Glo viability, 72 h; at 44.8 µM (top of the series)
In short: as §2

UISO = test: as above; conditions: MCC and control cell lines, CellTiter-Glo viability, 72 h; at 46 µM (top of the series)
In short: as §2

WaGa = test: as above; conditions: MCC and control cell lines, CellTiter-Glo viability, 72 h; at 46 µM (top of the series)
In short: as §2

[5] = Quantitative High-Throughput drug screen in 47 multiple myeloma cell lines against the NCATS MIPE library collection: XG6_PLB cell viability assay (AID 1919865); conditions: XG6 myeloma viability, CellTiter-Glo ATP luminescence, 48 h; at 45.8 µM (top of the series);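 further: 100% = DMSO-only wells and 0% = media-only wells; nearly all actives have a fitted effect of over 40% in size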
In short: (§3)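 ATP-based luminescence (CellTiter-Glo, 5 min RT incubation) quantified surviving cells following two days' treatment with MIPE 4.0 agents at 37 °C, 5% CO2.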

[6] = Quantitative High-Throughput drug screen in 47 multiple myeloma cell lines against the NCATS MIPE library collection: XG1_PLB cell viability assay (AID 1919866); conditions: CellTiter-Glo ATP, 48 h; at 45.8 µM (top of the series); further: nearly all actives have a fitted effect of over 35% in size
In short: as §3

[7] = Quantitative High-Throughput drug screen in 47 multiple myeloma cell lines against the NCATS MIPE library collection: PCM6_Riken cell viability assay (AID 1919870); conditions: CellTiter-Glo ATP, 48 h; at 45.8 µM (top of the series);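 further: 100% = DMSO-only wells and 0% = media-only wells; nearly all actives have a fitted effect of over 30% in size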
In short: as §3

[8] = Quantitative High-Throughput drug screen in 47 multiple myeloma cell lines against the NCATS MIPE library collection: RPMI8226_ATCC cell viability assay (AID 1919871); conditions: RPMI8226 myeloma viability, CellTiter-Glo ATP luminescence, 48 h; at 45.8 µM (top of the series); further: nearly all actives have a fitted effect of over 30% in size
In short: as §3

[9] = Quantitative High-Throughput drug screen in 47 multiple myeloma cell lines against the NCATS MIPE library collection: OPM2_DSMZ cell viability assay (AID 1919872); conditions: OPM2 myeloma viability, CellTiter-Glo ATP luminescence, 48 h; at 45.8 µM (top of the series); further: nearly all actives have a fitted effect of over 30% in size
In short: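 qHTS of the MIPE 4.0 collection: 500 myeloma cells/well, 48 h drug exposure at 37C in 5% CO2, then CellTiter-Glo for 5 min at room temperature before luminescence reading.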

[10] = Quantitative High-Throughput drug screen in 47 multiple myeloma cell lines against the NCATS MIPE library collection: KMS28BM_JCRB cell viability assay (AID 1919874); conditions: CellTiter-Glo ATP, 48 h; at 45.8 µM (top of the series); further: nearly all actives have a fitted effect of over 35% in size
In short: as §3

[11] = qHTS drug screen for cell cycle checkpoint inhibitors in PARPi-resistant BRCA-mutant ovarian cancer cell lines. (AID 1963452; calls by dose curve); conditions: PEO1/OlaR viability, CellTiter-Glo luminescence, 96 h; hits give low values
In short: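 PEO1, PEO4 and PEO1/OlaR ovarian cancer cells, 600 per well, exposed 96 h at 37C to a dilution series. Viability read by CellTiter-Glo luminescence, normalized to DMSO and empty wells; activity summarized as Z-AUC.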

CC(=O)N1CCc2ccc(N(C(=O)/C=C/c3cccc(C#N)c3)C3CCN(CCC4CCCC4)CC3)cc21
inactive: max response (CRL-7250) -13.4% | max response (HEK293) -7.17% | max response (KB-3-1) -0.0041% | max response (NIH3T3 [1]) -78.6%

CCOC(=O)N1CCC(=O)CC1
inactive: max response (CRL-7250) -2.46% | max response (HEK293) -1.24% | outcome (HaCat [2]) | outcome (NIH3T3 [1]) | outcome (HACAT [3]) | activity change, negative = cytotoxicity (MCC-13) 6.74% | activity change, negative = cytotoxicity (MCC-26) 5.04% | activity change, negative = cytotoxicity (MKL-1) 22.2% | activity change, negative = cytotoxicity (MKL-2) 6.62% | outcome (NIH3T3 [4]) | activity change, negative = cytotoxicity (UISO) 11.7% | activity change, negative = cytotoxicity (WaGa) 7.91%

CCOC(=O)C(=O)CBr
inactive: viability (% of control) [5] 102% | viability [6] 87.7% | viability (% of control) [7] 82.5% | viability (% of control) [8] 83.4% | viability (% of DMSO) [9] 112% | viability, % of control [10] 112% | Z-AUC [11] 0.416 | max response (CRL-7250) 2.38% | max response (HEK293) -2.98% | outcome (HaCat [2]) | max response (KB-3-1) -2.32% | max response (NIH3T3 [1]) -2.77% | outcome (HACAT [3]) | activity change, negative = cytotoxicity (MCC-13) 0.235% | activity change, negative = cytotoxicity (MCC-26) -6.43% | activity change, negative = cytotoxicity (MKL-1) -10.8% | activity change, negative = cytotoxicity (MKL-2) -19.1% | activity change, negative = cytotoxicity (UISO) -0.074% | activity change, negative = cytotoxicity (WaGa) -4.74%

CCC(=O)N(c1ccccc1)C1CCNCC1
inactive: max response (CRL-7250) -2.98% | max response (HEK293) -1.73% | outcome (HaCat [2]) | max response (NIH3T3 [1]) 0.954% | outcome (HACAT [3]) | activity change, negative = cytotoxicity (MCC-13) 12.9% | activity change, negative = cytotoxicity (MCC-26) -3.85% | activity change, negative = cytotoxicity (MKL-1) -10.3% | activity change, negative = cytotoxicity (MKL-2) -0.735% | activity change, negative = cytotoxicity (UISO) -9.91% | activity change, negative = cytotoxicity (WaGa) -20.1%
